By UniProt entry, the sequences of proteins in these tests, tags left out.
UniProt P32245, whole entry: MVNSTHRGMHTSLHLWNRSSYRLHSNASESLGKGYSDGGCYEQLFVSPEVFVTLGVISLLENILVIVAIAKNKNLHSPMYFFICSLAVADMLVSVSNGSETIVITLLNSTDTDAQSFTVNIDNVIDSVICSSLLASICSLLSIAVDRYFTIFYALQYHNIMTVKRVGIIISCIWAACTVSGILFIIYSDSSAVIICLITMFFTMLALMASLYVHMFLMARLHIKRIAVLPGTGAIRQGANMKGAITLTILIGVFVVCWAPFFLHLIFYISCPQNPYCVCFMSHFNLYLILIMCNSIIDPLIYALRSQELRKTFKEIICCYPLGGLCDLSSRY

In ChEMBL document CHEMBL1143618, “Discovery of a beta-MSH-derived MC-4R selective agonist” (J Med Chem, 2005):

Biological target: Melanocortin receptor 4 (Homo sapiens, UniProt P32245)
Test: Agonist activity at human Melanocortin-4 receptor as peptide required for 50% maximal cAMP release (n > or =2)
Format: functional

Structure (SMILES) | EC50 [nM]
CC(=O)N[C@H](CCCNC(=N)N)C(=O)N[C@H]1CSSC[C@@H](C(N)=O)NC(=O)[C@H](Cc2c[nH]c3ccccc23)NC(=O)[C@H](CCCNC(=N)N)NC(=O)[C@@H](Cc2ccccc2)NC(=O)[C@H](Cc2c[nH]cn2)NC(=O)[C@H](CCC(=O)O)NC1=O | 0.28
CC(=O)N[C@@H](CCCNC(=N)N)C(=O)N[C@H]1CSSC[C@@H](C(N)=O)NC(=O)[C@H](Cc2c[nH]c3ccccc23)NC(=O)[C@H](CCCNC(=N)N)NC(=O)[C@@H](Cc2ccccc2)NC(=O)[C@H](Cc2c[nH]cn2)NC(=O)[C@H](CCC(=O)O)NC1=O | 0.26
